Series [1] concerns mammalian red blood cells. To be noted: for % Lysis: 37° C., 1 hour.
Series [2] is described as follows: Circular dichroism spectroscopy. The class given is physicochemical. To be noted: for min λ, Phosphate buffer / min λ, TFE / max λ, TFE / max λ, Phosphate buffer: CD spectrum; for min λ, Phosphate buffer / Conformation in buffer / max λ, Phosphate buffer: 10 mM sodium phosphate buffer, pH 7.2; for min λ, TFE / Conformation in TFE / max λ, TFE: phosphate buffer and 40% (v/v) trifluoroethanol; for Conformation in buffer / Conformation in TFE: CD.

Series [3] in a line: Single dose toxicity, intraperitoneal injection, formulations. The class given is in vivo, outbred ICR mice. Particulars: Intraperitoneal injection, single dose, outbred ICR mice (Table 32). How it is done:
The single dose toxicity of a cationic peptide and antibiotic agent combination is examined in outbred ICR mice. Intraperitoneal injection of the combination in isotonic saline is carried out at increasing dose levels. The survival of the animals is monitored for 7 days. The number of animals surviving at each dose level is used to determine the maximum tolerated dose (MTD). In addition, the MTD can be determined after administration of the peptide and agent by different routes, at different time points, and in different formulations.
The single dose toxicity of MBI 10CN and MBI 11CN is examined in outbred ICR mice (Table 32).
The single dose toxicity of MBI 10CN and MBI 11CN in different formulations is also examined in outbred ICR mice (Table 36). Intraperitoneal injection (groups of 2 mice) of MBI 10CN in formulation D show no toxicity up to 29 mg/kg and under the same conditions MBI 11CN show no toxicity up to 40 mg/kg.

A short description of series [4]: Single and multiple dose toxicity, intravenous injection, formulations. To be noted: Intravenous injection, single dose, outbred ICR mice (Table 32). The class given is in vivo, outbred ICR mice.
The nature of series [5]: Acute single dose toxicity, intraperitoneal route, isotonic saline. The class given is in vivo. Particulars: Swiss CD1 mice, 5 days. On the procedure: In vivo toxicity of a peptide is measured through administration of a range of doses to animals, typically mice, by a route defined in part by the intended clinical use. The survival of the animals is recorded and LD50, LD90-100, and maximum tolerated dose (MTD) can be calculated to enable comparison of analogues. Indolicidin analogues less toxic than indolicidin are preferred.
(§1) The acute, single dose toxicity of various indolicidin analogues is tested in Swiss CD1 mice using various routes of administration. In order to determine the inherent toxicities of the peptide analogues in the absence of any formulation/delivery vehicle effects, the peptides are all administered in isotonic saline with the final pH between 6 and 7.
Intraperitoneal route. Groups of 6 mice are injected with peptide doses of between 80 and 5 mg/kg in 500 μl dose volumes. […] The LD50 values are calculated using the method of Reed and Muench (J. of Amer. Hyg. 27:493-497, 1938).

A further series has as its system sheep RBC. In words: Red blood cell (RBC) lysis assay, standardized conditions (1% RBC). The class given is cell-based. To be noted: for % lysis at 5 μg/ml: 5 μg/ml peptide.
The nature of series [6]: Acute single dose toxicity, intravenous route, isotonic saline. Particulars: Swiss CD1 mice, 5 days. The class given is in vivo. How it is done: In vivo toxicity of a peptide is measured through administration of a range of doses to animals, typically mice, by a route defined in part by the intended clinical use. […]. Indolicidin analogues less toxic than indolicidin are preferred.
as §1
Intravenous route. […]. […]

“And” between values parts separate entries of the source, which are not always exact repeats. Equal values may be shown once.

In the case of ILKKWPWWVWRRK [MBI 11F2CN], the “% Lysis” value in series [1] came to 1.4%.

Take ILKKYPYYPYRRK [MBI 11A3CN]: the “% Lysis” value in series [1] was determined as 0.0%.

In the case of ILKKFPFFPFRRK [MBI 11A1CN], the “% Lysis” value in series [1] is 0.5%.

Regarding ILRRNPNNPNRRK [MBI 11B1CNW1], in series [2], the “min λ, Phosphate buffer” value came to 201 nm; the “min λ, TFE” value was 201 nm; the Conformation in buffer result was “Unordered”; the “Conformation in TFE” value is listed as “Unordered”.

As to ILKKWVWWVWRRK [MBI 11F1CN], the “% Lysis” value in series [1] is 2.1%.

As to KWKSFIKKLTSAAKKVVTTAKPLISS [MBI 26], the MTD was greater than 37 mg/kg in series [3] and greater than 18 mg/kg in series [4]. The “% Lysis” value in series [1] turned out to be 0.6%.

ILKKWWWPWRK [MBI 11D14CN]: the “% Lysis” value in series [1] came to 1.1%.

Turning to KWKSFIKKLTSAAKKVLTTGLPALIS [MBI 29A3], in series [1], the “% Lysis” value is recorded as 2.0%.

Take ILKKWPWWPWRRK [MBI 11]: in series [2], the “min λ, Phosphate buffer” value stood at 199 nm; the “max λ, TFE” value came out at 220 nm; the “min λ, TFE” value was 202, nm and 227 nm; the Conformation in buffer entry is “Unordered”. Besides, the “Conformation in TFE” value in series [2] is listed as “β-turn”. Further, in series [1], the lysis is given as 2.3% and the “red blood cell lysis” value is “substantial lysis”.

Take ILKKWPWWPWK [MBI 11G13CN]: the “% Lysis” value in series [1] came out at 0.2%.

Take ILKKWPWWPWRRK [MBI 11E3CN]: in series [2], the “max λ, Phosphate buffer” value came to 226 nm; the “min λ, Phosphate buffer” value is 202 nm; the “min λ, TFE” value turned out to be 200 nm; the Conformation in buffer entry is “ppII helix”. In series [2], the “Conformation in TFE” value is “Unordered”. In series [5], this substance displayed an LD50 of 21 mg/kg, an LD90-100 of 40 mg/kg and an MTD of less than 20 mg/kg. Moreover, the “% Lysis” value in series [1] was 1.3%.

As to ILKWPWWPWRK [MBI 11B5CN], the “% Lysis” value in series [1] came to 1.7%.

On to ILKKNPNNPNRRK [MBI 11CNY1], for which, in series [2], the “min λ, Phosphate buffer” value was found to be 200 nm; the “min λ, TFE” value stood at 200 nm; the Conformation in buffer entry is on record as “Unordered”; the “Conformation in TFE” value is “Unordered”.

On to ILKKNPNNPNRK [MBI 11B4ACN], for which, in series [2], the “min λ, Phosphate buffer” value is 200 nm; the “min λ, TFE” value turned out to be 200 nm; the Conformation in buffer result is reported as “Unordered”; the “Conformation in TFE” value is “Unordered”.

As for LKKWPWWPWRRK [MBI 11D1CN], in series [2], the “min λ, Phosphate buffer” value is 200 nm; the “min λ, TFE” value turned out to be 204 nm; the Conformation in buffer result is given as “Unordered”; the “Conformation in TFE” value is given as “Unordered”.

Turning to ILKKWPWW PWKKK [MBI 11B10CN], the “% Lysis” value in series [1] stood at 0.2%.

For the substance ILKKYPWYPWRRK [MBI 11A5CN], the “% Lysis” value in series [1] is 0.3%.

On to ILKKWWWPWRRK [MBI 11G4CN], for which, in series [2], the “min λ, Phosphate buffer” value is 199, nm and 221 nm; the “max λ, TFE” value was determined as 215 nm; the “min λ, TFE” value was 201, nm and 226 nm; the Conformation in buffer result is on record as “Unordered”. Further, the “Conformation in TFE” value in series [2] was “β-turn”.

Turning to ILKKWPWWPWRRK [MBI 11E1CN], in series [2], the “min λ, Phosphate buffer” value worked out at 201 nm; the “min λ, TFE” value was determined as 201 nm; the Conformation in buffer entry is “Unordered”; the “Conformation in TFE” value is on record as “Unordered”. Also, the “% Lysis” value in series [1] turned out to be 0.8%.

As for ILKWPWWPWRRK [MBI 11B3CN], the “% Lysis” value in series [1] stood at 3.3%.

In the case of ILKKWPWWPWRK [MBI 11B4CN], in series [1], the “% Lysis” value amounted to 1.6%.

ILKKIPIIPIRRK [MBI 11A2CN]: in series [1], the “% Lysis” value was found to be 0.1%.

Take ILKKWPWPWRRK [MBI 11A4CN]: the “% Lysis” value in series [1] is reported as 0.3%.

For the substance ILKKWPWWPWRRK [MBI 11E2CN], in series [2], the “min λ, Phosphate buffer” value is on record as 200 nm; the “min λ, TFE” value amounted to 201 nm; the Conformation in buffer entry was “Unordered”; the “Conformation in TFE” value is recorded as “Unordered”.

As for ILKKWPWWWRRK [MBI 11G5CN], the “% Lysis” value in series [1] came to 0.6%.

As to ILRRWPWWPWRK [MBI 11B2CN], the “% Lysis” value in series [1] is reported as 3.2%.

Take ILKKWPWWPWRRIMILKKAGS [MBI 11D6CN]: the “% Lysis” value in series [1] is listed as 1.1%.

Consider ILKKFPFWPWRRK [MBI 11A7CN], for which the “% Lysis” value in series [1] was 0.5%.

For ILKKWPWWPWRR [MBI 11G7CN], the “% Lysis” value in series [1] is on record as 1.5%.

Take ILWPWWPWRRK [MBI 11B8CN]: the “% Lysis” value in series [1] is given as 1.1%.

For the substance PWWPWRRK [MBI 11D3CN], the “% Lysis” value in series [1] was 0.8%.

Consider ILKNPNNPWRR [MBI 11G7ACN], for which, in series [2], the “min λ, Phosphate buffer” value worked out at 200 nm; the “max λ, TFE” value worked out at 221 nm; the “min λ, TFE” value is reported as 202 nm; the Conformation in buffer entry was “Unordered”. Moreover, the “Conformation in TFE” value in series [2] is listed as “Unordered”.

Consider ILRRWPWWPWRRR [MBI 11B9ACN], for which, in series [2], the “min λ, Phosphate buffer” value is listed as 200 nm; the “min λ, TFE” value worked out at 200 nm; the Conformation in buffer entry is recorded as “Unordered”; the “Conformation in TFE” value is given as “Unordered”.

Regarding GKPRPYSPIPTSPRPIRY [MBI 31], the “% Lysis” value in series [1] was 0.3%.

For the substance Gramicidin-S, the “% lysis at 5 μg/ml” value with sheep RBC (1% (v/v) sheep RBC, pH 6-7) is 30%.

Regarding ILKKWPWWPWRRK [MBI 11ACN], in series [2], the “min λ, Phosphate buffer” value was 199 nm; the “max λ, TFE” value was 219 nm; the “min λ, TFE” value is 203 nm; the Conformation in buffer result was “Unordered”. Further, the “Conformation in TFE” value in series [2] is reported as “Unordered”.

Take ILKKWPWWWRK [MBI 11D15CN]: the “% Lysis” value in series [1] is recorded as 0.9%.

ILRRWPWWPWRRK [MBI 11B1CN]: in series [1], the “% Lysis” value amounted to 3.1%.

ILKKPWWPWRRK [MBI 11G3CN]: the “% Lysis” value in series [1] came to 0.5%.

For ILKKWVWWPWRRK [MBI 11F3CN], in series [2], the “max λ, Phosphate buffer” value is 228 nm; the “min λ, Phosphate buffer” value came to 199 nm; the “min λ, TFE” value was determined as 202 nm; the Conformation in buffer entry was “ppII helix”. For the same substance, the “Conformation in TFE” value in series [2] is listed as “Unordered”. Also, in the series on sheep RBC (1% (v/v) sheep RBC, pH 6-7), the “% lysis at 5 μg/ml” value was found to be 1%. Besides, in the series on sheep RBC (1% (v/v) sheep RBC, 50 μg/ml peptide, pH 6-7), the “% lysis at 50 μg/ml” value was found to be 6%. In addition, the “% lysis at 500 μg/ml” value in the series with sheep RBC (1% (v/v) sheep RBC, 500 μg/ml peptide, pH 6-7) came to 17%. Further, in the series on sheep RBC (5, 50 and 500 μg/ml), the “lysis relative to the other analogues” value was “significantly less lytic than the other two variants”. In series [5], this substance gave an LD50 of 52 mg/kg, an LD90-100 of 80 mg/kg and an MTD of 20 mg/kg. In series [6], this substance showed an LD50 of 10 mg/kg, an LD90-100 of 12 mg/kg and an MTD of 8 mg/kg.

For the substance ILKKNPNNPRRK [MBI 11G6ACN], in series [2], the “min λ, Phosphate buffer” value stood at 200 nm; the “min λ, TFE” value worked out at 199 nm; the Conformation in buffer result is given as “Unordered”; the “Conformation in TFE” value was “Unordered”.

With ILKKWPWWPRRK [MBI 11G6CN], in series [1], the “% Lysis” value is given as 0.6%.

With ILKKFPWFPWRRK [MBI 11A6CN], the “% Lysis” value in series [1] is reported as 0.7%.

Regarding KKWWRRALQGLKTAGPAIQSVLNK [MBI 21A2], the “% Lysis” value in series [1] turned out to be 0.5%.

As for ILKKWPWWPWRPMILKKAGS [MBI 11D5CN], the “% Lysis” value in series [1] is given as 0.7%.

On to ILKKWPWWPWR [MBI 11G14CN], for which the “% Lysis” value in series [1] is recorded as 1.1%.

With ILKKWPWWPWRRKMILKKAGS [MBI 11D4CN], the “% Lysis” value in series [1] was 0.9%.
